Data from paper PMC3806051 (Journal of the American Chemical Society, 2013).

System: SJSA-1 osteosarcoma tumor xenograft

CC(C)(C)C[C@H]1N[C@@H](C(=O)N[C@H]2C[C@@](C)(O)C2)[C@H](c2cccc(Cl)c2)[C@@]12C(=O)Nc1cc(Cl)ccc12 [15a, (2′R,3S,4′R,5′R)-6-chloro-4′-(3-chlorophenyl)-N-((1s,3S)-3-hydroxy-3-methylcyclobutyl)-2′-neopentyl-2-oxospiro[indoline-3,3′-pyrrolidine]-5′-carboxamide]
tumor growth inhibition as compared to vehicle control (100 mg/kg daily oral gavage 14 days, end of treatment (day 24)): 78%
weight loss or other signs of toxicity (100 mg/kg oral gavage 14 days): no significant weight loss or other signs of toxicity
tumor regression (100 mg/kg oral gavage for 14 days, SCID mice with SJSA-1 tumors): failed to achieve tumor regression
